Experimental data taken from patent publication US10465009B2, “BCMA antigen binding proteins” (Amgen Inc., priority 2012, dated 2019).

T1: [6x Histidine-SUMO]-huBCMA (SEQ ID NO:350) and carboxy terminal clipped forms (Homo sapiens, UniProt Q02223)
T1 construct: GGS-G3 linker + Avi tag (lost in the clipped species) (C); made in house
T1 sequence (Q02223 5-54): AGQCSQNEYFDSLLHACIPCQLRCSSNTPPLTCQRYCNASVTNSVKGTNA


How the values were obtained:
[1] = molecular target: T1, [6x Histidine-SUMO]-huBCMA (SEQ ID NO:350) and carboxy terminal clipped forms; experiment: Size exclusion chromatography and LC/MS of antibody complexes with Sumo-huBCMA and its clipped forms; format: binding; conditions: SEC
Excerpt: To determine which forms of 6×His-SUMO-huBCMA were bound to the anti-huBCMA antibodies, the SEC fractions were isolated and analyzed. Carboxy-terminus fragments of the extracellular domain of human BCMA were generated as clipped forms from the rhuBCMA fusion protein (6×His::Sumo::huBCMA(aa 5-51)::GGS::G3::Avi) of SEQ ID NO:350, as shown in FIG. 45.
A Superdex 200™ 10/30 cm SEC column (GE Healthcare Life Sciences) was used according to the manufacturer's recommendations and run in phosphate buffered saline (PBS). Incubations of antibody with excess levels of sumoBCMA were performed at room temperature for at least 30 minutes.
A Superdex 200™ 10/30 cm SEC column (GE Healthcare Life Sciences) was used according to the manufacturer's recommended condision and run in phosphate buffered saline (PBS). Incubations of antibody with excess levels of sumoBCMA were performed at room temperature for at least 30 minutes.
5 ug of total proteins were reduced in 50 mM Tris/4 M guanidine/9 mM DTT, pH 8.0 at 55° C. for 15 min, and analyzed in Agilent LCTOF system using a Vydac C8 column, 2.1 mm ID×150 mm, […] particle size. […] TOF MS conditions included capillary voltage of 4000 V, drying gas flow at 10 L/min, dry gas temperature at 300° C., nebulizer gas flow at 40 L/min, and fragmentor voltage of 300 V. MS data was analyzed in Agilent MassHunter™ Qualitative Analysis program.

KMS28BM = experiment: CellTiter-Glo Luminescent Cell Viability Assay, KMS28BM; format: cell-based, human
Experimental: (§1) The ADCs were tested for the ability to target and kill BCMA-expressing myeloma cells. The CellTiter-Glo® Luminescent Cell Viability Assay is a homogeneous method to determine the number of viable cells in culture based on quantitation of the ATP present, which signals the presence of metabolically active cells. The CellTiter-Glo® Assay is applicable to cytotoxicity assays (see http://www.promega.com/products/cell-health-assays/cell-viability-assays/celltiterglo-luminescent-cell-viability-assay/ for more information). The cell viability assay was used to assess the relative killing capacity of various ADCs on various multiple myeloma cell lines and B-cell lines. […] Luminescence was read on an EnVision™ Multilabel reader (PerkinElmer) or Analyst HT plate reader (LJL Biosciences). The data was analyzed and graphed using GraphPad Prism™ to determine the relative efficacy of the ADCs on various cancer cell lines.
(§2) The 2A1CV5-MCC-DM1, 32B5-MCC-DM1 and 29C12-MCC-DM1 ADCs were tested for the ability to target and kill BCMA-expressing myeloma cells (H929). The CellTiter-Glo® Luminescent Cell Viability Assay is a homogeneous method to determine the number of viable cells in culture based on quantitation of the ATP present, which signals the presence of metabolically active cells. […] Luminescence was read on an EnVision™ Multilabel reader (PerkinElmer) or Analyst HT plate reader (LJL Biosciences). […]

MM1R = experiment: CellTiter-Glo Luminescent Cell Viability Assay, MM1R; format: cell-based, human
Experimental: as §1, §2

U266 = experiment: CellTiter-Glo Luminescent Cell Viability Assay, U266; format: cell-based, human
Experimental: as §1, §2

KMS34 = experiment: CellTiter-Glo Luminescent Cell Viability Assay, KMS34; format: cell-based, human
Experimental: as §1, §2

| Molecule | binding to full-length and truncated forms of huBCMA [1] | Cell line killed by BCMA ADC (KMS28BM) | Cell line killed by BCMA ADC (MM1R) | Cell line killed by BCMA ADC (U266) | Cell line killed by BCMA ADC (KMS34) |
| --- | --- | --- | --- | --- | --- |
| 2A1: parental fully human anti-huBCMA mAb, Vh SEQ ID NO:214, Vl SEQ ID NO:248; heavy chain SEQ ID NO:287, light chain 288 (antibody) heavy: EVQLVESGGGLVKPGRSLRLSCTASGFTFGDYALSWFRQAPGKGLEWVGVSRSKAYGGTTDYAASVKGRFTISRDDSKSFAYLQMNSLKTEDTAVYYCCSSGYSSGWTPFDYWGQGTLVTVSSASTKGPSVFPLAPSSKSTSGGTAALGCLVKDYFPEPVTVSWNSGALTSGVHTFPAVLQSSGLYSLSSVVTVPSSSLGTQTYICNVNHKPSNTKVDKKV[omitted - human IgG1 Fc] light: QSVLTQPPSASGTPGQRVTISCSGSSSNIGSNTVNWYQQLPGTAPKLLIFNYHQRPSGVPDRFSGSKSGSSASLAISGLQSEDEADYYCAAWDDSLNGWVFGGGTELTVLGQPKAAPSVTLFPPSSEELQANKATLVCLISDFYPGAVTVAWKADSSPVKAGVETTTPSKQSNNKYAASSYLSLTPEQWKSHRSYSCQVTHEGSTVEKTVAPTECS | bound full-length and truncated forms of BCMA |  |  |  |  |
| 2A1CV5-MCC-DM1 (conjugate) heavy: EVQLVESGGGLVKPGGSLRLSCAASGFTFGDYALSWFRQAPGKGLEWVGVSRSKAYGGTTDYAASVKGRFTISRDDSKSTAYLQMNSLKTEDTAVYYCASSGYSSGWTPFDYWGQGTLVTVSSASTKGPSVFPLAPSSKSTSGGTAALGCLVKDYFPEPVTVSWNSGALTSGVHTFPAVLQSSGLYSLSSVVTVPSSSLGTQTYICNVNHKPSNTKVDKKV[omitted - human IgG1 Fc] light: QSVLTQPPSASGTPGQRVTISCSGSSSNIGSNTVNWYQQLPGTAPKLLIFNYHQRPSGVPDRFSGSKSGSSASLAISGLQSEDEADYYCAAWDDSLNGWVFGGGTKLTVLGQPKAAPSVTLFPPSSEELQANKATLVCLISDFYPGAVTVAWKADSSPVKAGVETTTPSKQSNNKYAASSYLSLTPEQWKSHRSYSCQVTHEGSTVEKTVAPTECS |  | Yes | Yes | Yes | Yes |
